Several values for one entry are separate records, joined by “and”; a condition that tells them apart may be missing. Identical values can stand only once. Like-named read-outs stand apart in the source and are kept apart here.
What was measured:
[1] = system: CHO cell line that expresses an antibody; test: Fed-batch experiment with the substances according to the invention (Example 2, Table 2); assay type: cell-based, Chinese hamster
Description: Feed took place at regular intervals.

[2] = system: CHO cell line that expresses an antibody; conditions: fed-batch, day 5; glutamine-free basal and feed media; substance 0.5-1 g/l
[3] = system: CHO cell line that expresses an antibody; conditions: fed-batch, basal medium 4 mM glutamine, feed with 3 g/l Ala-Gln and 3 g/l Gly-Gln, substance 0.5-1 g/l

For O=C(O)CCC(=O)C(=O)O [α-Keto-glutarate], the “Total Cell Density TCD” value ([1]; day 0, fed-batch) was 1.5 E5/ml, the “Viable Cell Density (VCD)” value ([1]; day 0, fed-batch) was 1.37 E5/ml and the “Total Cell Density TCD” value ([1]; day 2, fed-batch) was 3.9 E5/ml and 3.4 E5/ml. The “Viable Cell Density (VCD)” value ([1]; day 2, fed-batch) was 3.8 E5/ml and 3.3 E5/ml, the “Total Cell Density TCD” value ([1]; day 5, fed-batch) was 11.8 E5/ml and the “Viable Cell Density (VCD)” value ([1]; day 5, fed-batch) was 11.4 E5/ml. For the same compound, the “Total Cell Density TCD” value ([1]; day 8, fed-batch) was 49.4 E5/ml, the “Viable Cell Density (VCD)” value ([1]; day 8, fed-batch) was 46.9 E5/ml and the VCD [2] was 104 % of control. For the same compound, the “Total Cell Density TCD” value ([3]; day 0) was 1.1 E5/ml, the “Viable Cell Density (VCD)” value ([3]; day 0) was 1.0 E5/ml and the “Total Cell Density TCD” value ([3]; day 3) was 7.6 E5/ml. The “Viable Cell Density (VCD)” value ([3]; day 3) was 7.1 E5/ml, the “Total Cell Density TCD” value ([3]; day 5) was 40.1 E5/ml and the “Viable Cell Density (VCD)” value ([3]; day 5) was 38.5 E5/ml. The “Total Cell Density TCD” value ([3]; day 7) was 36.0 E5/ml, the “Viable Cell Density (VCD)” value ([3]; day 7) was 30.2 E5/ml and the “Total Cell Density TCD” value ([3]; day 9) was 31.2 E5/ml. For the same compound, the “Viable Cell Density (VCD)” value ([3]; day 9) was 21.0 E5/ml.

Reference: US8426202B2, “Cell culture medium” (Cellca GmbH, priority 2005, dated 2013)
